# Measured affinities in a library of Ab-14 light chain variants

Data: MIT Lincoln Laboratory AlphaSeq set, Li et al. 2023, doi:10.1038/s41467-023-39022-2, as distributed in FLAb.

Target: peptide PDVDLGDISGINAS, taken from heptad repeat 2 (HR2) of SARS-CoV-2 spike.

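These sequences belong to a second round, designed from the earlier measurements on random variants of the parent. Several design methods are mixed in this list. AlphaSeq pools MATa yeast showing the antibodies with MATalpha yeast showing the peptide. Mating (16 h, 30 °C) was followed by selection of diploids and sequencing of their barcodes. Scores were corrected for input abundance and mapped to Kd with protein pairs of known affinity run in the same pool. Mating was done six times.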

The variants keep the heavy chain, the linker and the frameworks of Ab-14 (scFv order VH, a (GGGGS)3 linker, VL).
VH: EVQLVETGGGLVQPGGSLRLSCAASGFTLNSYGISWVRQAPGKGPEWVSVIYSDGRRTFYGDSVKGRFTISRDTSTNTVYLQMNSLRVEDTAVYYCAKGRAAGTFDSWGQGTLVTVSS
VL: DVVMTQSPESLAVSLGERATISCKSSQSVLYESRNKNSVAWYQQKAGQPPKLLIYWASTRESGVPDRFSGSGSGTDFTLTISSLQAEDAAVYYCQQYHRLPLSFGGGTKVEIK

Variants are written as CDR1, CDR2 and CDR3 of the light chain (limits as in the source). Parent: KSSQSVLYESRNKNSVA, WASTRES, QQYHRLPLS. Each Kd is an estimate from the mating assay, the geometric mean of the replicates in which the pair was seen; lower is stronger. "no signal" marks a missing value. The strain was present, yet no cells mated with the target were sequenced in any replicate, which points to weak or no binding. Entries are sorted by rising average, undetected variants last.

| CDR-L1 | CDR-L2 | CDR-L3 | Kd | detected |
|---|---|---|---|---|
| KIQQSVLYESRNKNSVA | NASTRMS | QQYHRLPLS | 370 pM | 6/6 |
| KFSQGVLYESRTKNSVA | NASTRES | QQYHRLPLS | 370 pM | 6/6 |
| KSSQSVDDESRNKNSVA | DASTRES | QQYHRLPLS | 410 pM | 6/6 |
| KSSQSELFQSRNKNSVA | DASTRES | QQYHRLPLS | 600 pM | 6/6 |
| KLDQSKLYESRNKNSVA | NASQRES | QQYHRLPLS | 650 pM | 6/6 |
| HSSPSVAGESRNKNSVA | NASTRES | QQYHRLPLS | 810 pM | 6/6 |
| KFEQLDGGEQRNKNSVA | NASQRED | QQYHRLPLS | 840 pM | 6/6 |
| KVSQSTLYESRNKNSVA | NASTRES | QQYHRLPLS | 950 pM | 6/6 |
| KSGDGVLYESRNKNSVA | GASTRES | QQYHRLPLS | 1.0 nM | 6/6 |
| KFMTSMPYESRNKNSVA | EASTREL | QQYHRLPLS | 1.2 nM | 6/6 |
| QIAETNMHVGIGANAIA | NATVRSA | QQYLRLPLM | 1.2 nM | 6/6 |
| KYQGQELTESRNKNSVA | NASTRES | QQYHQLPLS | 1.2 nM | 6/6 |
| KLSQSHLYESRNKNSVA | NASTREV | QQYHRLPLS | 1.3 nM | 6/6 |
| HSSPSVAYESRNKNSVA | NASTREE | QQYHRLPLS | 1.4 nM | 6/6 |
| KISSMVRVGSTHKNSIA | EEATRAD | QQYHRLPLA | 1.4 nM | 6/6 |
| KSGQGVEYESRNWNSVA | GASTRES | QQYHRLPLS | 1.4 nM | 6/6 |
| KSQQSEPYESRNKNSVA | NASTRES | QQYHRLPLS | 1.4 nM | 6/6 |
| KSSQSDLYESRNGNSVA | NASYRED | QQYHRLPLS | 1.6 nM | 6/6 |
| KLRAVTGTEKVIGNNVA | EMETRER | QQYNRLPLS | 2.0 nM | 6/6 |
| KSSGSVLYEDRMVNSVA | NASQREE | QQYHRLPLS | 2.1 nM | 6/6 |
| KSLQSVLYESGDKNSVA | HASTRED | QQYHRLPLS | 2.1 nM | 6/6 |
| TISHSTDLESVHKNNIA | DLMTRES | QQYDRLPLS | 2.4 nM | 6/6 |
| KSSISYLYESENKGSVA | EASQRES | QQYHRLPLS | 2.4 nM | 6/6 |
| KVSQSVLYESRDKNSVA | DASTRCS | QQYHRLPLE | 2.4 nM | 6/6 |
| KSSISYLYESRNENSVA | EASTRER | QQYHRLPLS | 2.6 nM | 6/6 |
| KSNQSVLGEERNKNSVA | NASTRES | QQYHRLPLS | 2.9 nM | 6/6 |
| KSSQSVLYESLNKNSVA | NASTRMS | QQYHRLPLS | 3.2 nM | 6/6 |
| KISQSNLYESRNKNSIA | NANTREQ | QQYHRLPLS | 3.3 nM | 6/6 |
| TISQMTSLFSQSINNVA | EVSMREK | QQYDRLPLT | 5.2 nM | 6/6 |
| HSSESVLYESRNGNSVA | NASTRES | QQYHRLPLS | 5.6 nM | 6/6 |
| KLPNSTLYESRQKNSVA | SASTRES | QQYHRLPLS | 5.7 nM | 6/6 |
| KIEISNSVSLRGTRAIA | QMSTRAH | QQYHRLPLT | 7.0 nM | 6/6 |
| KLSSLTGTEKVHGNNVA | EMETRER | QQYNRLPLA | 8.0 nM | 6/6 |
| KSSQSVLYESMNKNSVA | WASTREA | QQYHRLPLS | 16 nM | 6/6 |
| HVHMLMAIWKEISNNIA | DAQNRNA | QQYFRLPLA | 30 nM | 2/6 |
| HMSNLTLQGMRMRNSVA | QMTTREN | QQYDHLPLS | 35 nM | 6/6 |
| KLSATYRFESQQKNNIA | EMTTRES | QCYHRLPLS | 41 nM | 6/6 |
| KISMMYRYESQEKNSIA | EMSTREE | QSYHRLPLS | 43 nM | 6/6 |
| TLMHHQDYQDEIKKSIA | NAIIKER | QQYSRLPLA | 53 nM | 1/6 |
| KSQQSVLYESENKNSVA | WASTREN | QQYHRLPLS | 78 nM | 4/6 |
| KLGMSVGYESRNKSRVA | DNSTRES | QQYDRLPLS | 160 nM | 1/6 |
| IVSQLMLWGMHATNSIA | EAQTRLN | QQYDRLPLI | 160 nM | 2/6 |
| HLSMLALSESVKHNNVA | ENSTREN | QQYDRLPLS | 210 nM | 2/6 |
| KSSQSVRYESRNKNSVA | WASKRER | QQYHRLPLS | no signal | 0/6 |
| KSSQSWLYESRNKNRQA | GASTRES | QQYHRLPLS | no signal | 0/6 |
| KSSHSVLYESRNKNVVA | WATTRES | QQYHRLPLS | no signal | 0/6 |

The opening 7 entries, copied out:

{"CDR-L1": "KIQQSVLYESRNKNSVA", "CDR-L2": "NASTRMS", "CDR-L3": "QQYHRLPLS", "Kd": "370 pM", "detected": "6/6"}
{"CDR-L1": "KFSQGVLYESRTKNSVA", "CDR-L2": "NASTRES", "CDR-L3": "QQYHRLPLS", "Kd": "370 pM", "detected": "6/6"}
{"CDR-L1": "KSSQSVDDESRNKNSVA", "CDR-L2": "DASTRES", "CDR-L3": "QQYHRLPLS", "Kd": "410 pM", "detected": "6/6"}
{"CDR-L1": "KSSQSELFQSRNKNSVA", "CDR-L2": "DASTRES", "CDR-L3": "QQYHRLPLS", "Kd": "600 pM", "detected": "6/6"}
{"CDR-L1": "KLDQSKLYESRNKNSVA", "CDR-L2": "NASQRES", "CDR-L3": "QQYHRLPLS", "Kd": "650 pM", "detected": "6/6"}
{"CDR-L1": "HSSPSVAGESRNKNSVA", "CDR-L2": "NASTRES", "CDR-L3": "QQYHRLPLS", "Kd": "810 pM", "detected": "6/6"}
{"CDR-L1": "KFEQLDGGEQRNKNSVA", "CDR-L2": "NASQRED", "CDR-L3": "QQYHRLPLS", "Kd": "840 pM", "detected": "6/6"}

In the paper, a design with two or fewer of six values counts as a poor binder. As a blank, each scFv also met three strains without target: over all light chain designs, 4% of these pairings were detected, typically at 430 nM and seldom below 38 nM. The range of this assay differs from that of the first round, and the authors advise against merging the two.